# Experimental data published in patent US7291332B2, “Inflammatory mediator antagonists” (SmithKline Beecham Corporation, priority 1998, dated 2007).
# System: Bovine nasal cartilage
# Assay: Cartilage degradation assay (hydroxyproline/collagen release, MMP1)
# Method: Bovine nasal septum cartilage was held at 4° C. overnight after slaughter. 2 mm diameter discs were cut from 2 mm slices and washed twice in HBSS. Three discs per well of a 24 well plate (Costar) were incubated at 37° C., 5% CO2 for 24 hrs in a 600 μl volume of DMEM (Sigma) containing 25 mM HEPES supplemented with 2 mM glutamine, 100 μg/ml streptomycin, 100 U/ml penicillin and 2.5 μg/ml amphotericin B (cartilage degradation medium, CDM). Cartilage was cultured in quadruplicate wells in either: 600 μl of CDM alone, 2, 10 or 50 ng/ml human recombinant TNFα alone, 10 ng/ml rhOSM alone (R&D systems) or TNFα+OSM and incubated for 7 days at 37° C., 5% CO2. Supernatants were harvested and replaced with fresh medium containing identical test reagents to day 1. […] The cumulative level of OH-proline released into the medium by day 14 was measured and expressed as the percentage of total released as set out below.
# Hydroxyproline release was assayed (as a measure of collagen degradation) using a microtitre plate modification of the method in (Bergmann I and loxley R. (1963) Anal. Biochem. 35 1961-1965. Chloramine T (7%) w/v) was diluted 1:4 in acetate citrate buffer (57 g sodium acetate, 37.5 g tri-sodium citrate, 5.5 g citrate acid, 385 ml propan-2-ol per liter water). […] The plate was heated to 65° C. for 35 min, cooled and the absorbance at 560 nm determined. […]
substance,measurement,setting,value
TNFα: human recombinant TNFα,collagen release,"TNFα alone 50 ng/ml, day 14",less than 10%
same,MMP1 secretion (total collagenase activity),"day 7, OSM 10 ng/ml, TNFα 50 ng/ml","neither OSM nor TNFα alone, used at 10 ng/ml or 50 ng/ml, respectively, induced significant MMP1 secretion"
